Experimental data taken from ChEMBL document CHEMBL1138707, “Bridgehead modification of trihalocycloheptabenzopyridine leads to a potent farnesyl protein transferase inhibitor with improved oral metabolic stability” (Bioorg Med Chem Lett, 2004).

Molecular target: Protein farnesyltransferase (Homo sapiens, UniProt P49354+P49356)
Assay: Inhibition of [3H]FPP incorporation into H-ras CVLS by Farnesyltransferase
Assay type: protein-complex assay

| Structure (SMILES) | IC50 [nM] |
| --- | --- |
| CS(=O)(=O)N1CCC([C@@H]2c3ncc(Br)cc3C=Cc3cc(Cl)cc(Br)c32)CC1 | 3.3 |
| NC(=O)N1CCC(CC(=O)N2CCC([C@@H]3c4ncc(Br)cc4C=Cc4cc(Cl)cc(Br)c43)CC2)CC1 | 0.4 |
| NC(=O)N1CCC(CC(=O)N2CCC([C@H]3c4ncc(Br)cc4C=Cc4cc(Cl)cc(Br)c43)CC2)CC1 | 16 |
